How the values were obtained:
thrombin = thrombin (Bos taurus, UniProt P00735); assay: biochemical
plasmin = plasmin (Homo sapiens, UniProt P00747); assay: inhibition of plasmin, dissociation constant Ki; conditions: read-out: Ki, Plasmin
[1] = test system: coagulation in human plasma; assay: prothrombin time (PT, Quick value) in human plasma
[2] = test system: coagulation in human plasma; assay: thrombin time (TT) in human plasma
[3] = test system: coagulation in human plasma; assay: activated partial thromboplastin time (aPTT) in human plasma
factor XIIa = target: T1, factor XIIa (Homo sapiens, UniProt P00748); assay: inhibition of factor XIIa, dissociation constant Ki
T1 sequence (P00748 373-615 limits assumed): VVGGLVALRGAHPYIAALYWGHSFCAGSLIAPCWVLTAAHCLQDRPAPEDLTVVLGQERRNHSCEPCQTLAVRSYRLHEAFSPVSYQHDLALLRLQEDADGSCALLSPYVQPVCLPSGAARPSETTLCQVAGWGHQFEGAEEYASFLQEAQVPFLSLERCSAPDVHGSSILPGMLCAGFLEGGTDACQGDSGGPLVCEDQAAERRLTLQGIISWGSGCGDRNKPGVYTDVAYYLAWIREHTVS

Chains of the proteins cited; added tags and fusions are not shown. Residues count along the entry.
UniProt P00747, 97-580 partner limits assumed: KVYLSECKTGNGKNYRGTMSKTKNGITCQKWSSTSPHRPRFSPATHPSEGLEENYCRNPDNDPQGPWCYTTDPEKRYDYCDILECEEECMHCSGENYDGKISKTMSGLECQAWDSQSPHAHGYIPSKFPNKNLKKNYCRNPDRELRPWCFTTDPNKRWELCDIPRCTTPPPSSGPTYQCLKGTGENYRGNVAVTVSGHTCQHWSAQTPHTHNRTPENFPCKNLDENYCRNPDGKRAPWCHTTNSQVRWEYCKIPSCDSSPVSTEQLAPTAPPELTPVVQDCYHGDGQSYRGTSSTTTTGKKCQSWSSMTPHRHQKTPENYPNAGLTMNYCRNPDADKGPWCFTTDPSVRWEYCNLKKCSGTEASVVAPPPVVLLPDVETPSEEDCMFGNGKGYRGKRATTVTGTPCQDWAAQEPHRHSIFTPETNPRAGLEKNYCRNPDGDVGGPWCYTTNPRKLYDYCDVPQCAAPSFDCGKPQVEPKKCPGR
UniProt P00747, 581-810 limits assumed: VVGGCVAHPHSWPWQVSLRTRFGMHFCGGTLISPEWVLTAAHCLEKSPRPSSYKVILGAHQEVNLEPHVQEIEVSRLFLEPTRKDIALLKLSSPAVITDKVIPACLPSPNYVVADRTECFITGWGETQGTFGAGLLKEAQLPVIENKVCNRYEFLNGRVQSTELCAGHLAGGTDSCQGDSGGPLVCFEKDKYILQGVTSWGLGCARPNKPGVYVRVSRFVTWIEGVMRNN

Row | SMILES | Ki (thrombin) | Concentr. to double the Prothrombin time [1] | Concentr. to double the Thrombin time [2] | Concentr. to double the aPTT [3] | other results
1 | CS(=O)(=O)N1CCN(C(=O)C(Cc2cccc(C(=N)N)c2)NS(=O)(=O)c2ccc3ccccc3c2)CC1 (centres unmarked) [AMD 2-Naph SO2 Me] | 2.8 nM |  |  |  | 
2 | CS(=O)(=O)N1CCN(C(=O)[C@H](Cc2cccc(C(=N)N)c2)NS(=O)(=O)c2ccc3ccccc3c2)CC1.Cl [Compound 5, Nα-(2-naphthylsulfonyl)-3-amidino-(L)-phenylalanine-4methylsulfonylpiperazide hydrochloride] | 2.1 nM |  |  |  | 
3 | CC(=O)N1CCN(C(=O)[C@H](Cc2cccc(C(=N)N)c2)NS(=O)(=O)c2ccc3ccccc3c2)CC1.Cl [Compound 2, Nα-(2-naphthylsulfonyl)-(L)-3-amidinophenylalanine-4-acetylpiperazide hydrochloride] | 12 nM |  |  |  | 
4 | Cc1c(C)c(S(=O)(=O)NC(Cc2cccc(C(=N)N)c2)C(=O)N2CCN(S(C)(=O)=O)CC2)c(C)c2c1OC(C)(C)CC2 (centres unmarked) [AMD Pmc SO2 Me] |  |  |  |  | Ki (plasmin): 30000 nM
5 | N=C(N)c1ccc(C[C@H](NC(=O)CNS(=O)(=O)c2ccc3ccccc3c2)C(=O)N2CCCCC2)cc1 [NAPAP, Nα-(2-naphthylsulfonyl)-glycyl-4-amidinophenylalanine piperidide, reference compound] |  | 1.0 µmol/L | 0.048 µmol/L | 0.50 µmol/L | Ki (factor XIIa): 450000 nM
6 | CS(=O)(=O)N1CCN(C(=O)C(Cc2cccc(C(=N)N)c2)NS(=O)(=O)c2cccc3ccccc23)CC1 (centres unmarked) [Compound 11] |  | 3.1 µmol/L | 0.22 µmol/L | 1.8 µmol/L | 

Source: patent US5607937A, “Piperazides of substituted phenylalanine derivatives as thrombin inhibitors” (priority 1993, dated 1997)
